The target in test [1] is T1, Sterol O-acyltransferase 1 (Rattus norvegicus) (UniProt O70536).
T1 sequence (whole entry): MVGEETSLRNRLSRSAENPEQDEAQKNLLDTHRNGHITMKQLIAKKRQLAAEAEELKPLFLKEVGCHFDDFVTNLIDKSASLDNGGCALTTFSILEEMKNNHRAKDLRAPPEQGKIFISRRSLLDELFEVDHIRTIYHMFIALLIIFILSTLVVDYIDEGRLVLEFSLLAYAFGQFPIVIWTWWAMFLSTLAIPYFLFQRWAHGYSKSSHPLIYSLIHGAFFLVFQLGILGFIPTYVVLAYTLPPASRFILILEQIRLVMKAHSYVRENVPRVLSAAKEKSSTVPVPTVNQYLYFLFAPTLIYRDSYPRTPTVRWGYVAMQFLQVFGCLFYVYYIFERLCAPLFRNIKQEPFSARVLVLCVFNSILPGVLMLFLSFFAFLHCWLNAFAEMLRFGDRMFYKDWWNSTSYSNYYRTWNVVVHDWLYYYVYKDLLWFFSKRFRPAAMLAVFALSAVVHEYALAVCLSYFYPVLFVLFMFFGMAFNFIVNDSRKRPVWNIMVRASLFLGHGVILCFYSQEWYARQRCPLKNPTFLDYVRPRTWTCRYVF
The test is described as follows: Compound was tested for the change in serum cholesterol (SC) levels by the inhibition of ACAT in cholesterol fed rat.

Protein sequences, listed by entry. Tags and fused reporters are not part of them. Lines headed by an entry give the natural chain unless they say otherwise; changes in a name come on top.
UniProt P11388: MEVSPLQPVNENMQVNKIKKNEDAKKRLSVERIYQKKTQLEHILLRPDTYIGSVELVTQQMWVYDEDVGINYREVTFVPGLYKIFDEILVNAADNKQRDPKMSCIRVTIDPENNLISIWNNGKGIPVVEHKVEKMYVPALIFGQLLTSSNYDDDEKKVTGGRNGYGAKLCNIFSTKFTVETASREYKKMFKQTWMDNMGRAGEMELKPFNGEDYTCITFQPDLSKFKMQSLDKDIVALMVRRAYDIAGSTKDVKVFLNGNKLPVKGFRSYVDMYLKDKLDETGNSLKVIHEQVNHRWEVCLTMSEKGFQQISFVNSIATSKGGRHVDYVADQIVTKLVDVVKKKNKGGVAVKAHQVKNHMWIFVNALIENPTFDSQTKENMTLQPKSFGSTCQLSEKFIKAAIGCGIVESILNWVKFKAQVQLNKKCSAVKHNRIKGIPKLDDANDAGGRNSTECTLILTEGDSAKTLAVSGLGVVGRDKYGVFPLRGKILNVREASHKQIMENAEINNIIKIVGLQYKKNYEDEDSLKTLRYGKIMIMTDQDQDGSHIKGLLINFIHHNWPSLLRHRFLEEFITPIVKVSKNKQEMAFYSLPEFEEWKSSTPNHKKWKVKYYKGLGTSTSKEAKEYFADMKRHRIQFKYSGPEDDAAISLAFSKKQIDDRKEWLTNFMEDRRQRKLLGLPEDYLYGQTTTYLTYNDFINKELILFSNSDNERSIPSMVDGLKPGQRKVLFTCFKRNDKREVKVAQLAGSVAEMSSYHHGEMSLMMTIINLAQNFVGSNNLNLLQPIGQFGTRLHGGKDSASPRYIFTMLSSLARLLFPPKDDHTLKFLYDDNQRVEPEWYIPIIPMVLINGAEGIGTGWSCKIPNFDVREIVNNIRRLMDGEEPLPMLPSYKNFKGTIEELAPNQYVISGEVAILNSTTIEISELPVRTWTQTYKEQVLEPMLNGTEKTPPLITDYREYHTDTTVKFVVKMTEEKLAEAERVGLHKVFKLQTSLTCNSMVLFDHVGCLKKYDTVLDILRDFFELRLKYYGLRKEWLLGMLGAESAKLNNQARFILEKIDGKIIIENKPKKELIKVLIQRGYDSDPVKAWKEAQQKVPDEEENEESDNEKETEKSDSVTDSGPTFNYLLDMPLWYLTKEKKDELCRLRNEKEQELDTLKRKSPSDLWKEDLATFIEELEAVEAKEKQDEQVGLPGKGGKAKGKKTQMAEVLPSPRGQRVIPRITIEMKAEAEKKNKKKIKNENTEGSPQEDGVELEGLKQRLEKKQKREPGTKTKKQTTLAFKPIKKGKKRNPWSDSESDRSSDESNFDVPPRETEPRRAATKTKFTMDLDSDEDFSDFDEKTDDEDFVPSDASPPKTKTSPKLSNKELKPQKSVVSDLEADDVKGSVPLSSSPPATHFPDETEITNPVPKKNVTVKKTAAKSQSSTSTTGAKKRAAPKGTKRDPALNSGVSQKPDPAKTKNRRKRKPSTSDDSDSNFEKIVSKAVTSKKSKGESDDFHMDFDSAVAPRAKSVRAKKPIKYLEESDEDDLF
UniProt Q02880: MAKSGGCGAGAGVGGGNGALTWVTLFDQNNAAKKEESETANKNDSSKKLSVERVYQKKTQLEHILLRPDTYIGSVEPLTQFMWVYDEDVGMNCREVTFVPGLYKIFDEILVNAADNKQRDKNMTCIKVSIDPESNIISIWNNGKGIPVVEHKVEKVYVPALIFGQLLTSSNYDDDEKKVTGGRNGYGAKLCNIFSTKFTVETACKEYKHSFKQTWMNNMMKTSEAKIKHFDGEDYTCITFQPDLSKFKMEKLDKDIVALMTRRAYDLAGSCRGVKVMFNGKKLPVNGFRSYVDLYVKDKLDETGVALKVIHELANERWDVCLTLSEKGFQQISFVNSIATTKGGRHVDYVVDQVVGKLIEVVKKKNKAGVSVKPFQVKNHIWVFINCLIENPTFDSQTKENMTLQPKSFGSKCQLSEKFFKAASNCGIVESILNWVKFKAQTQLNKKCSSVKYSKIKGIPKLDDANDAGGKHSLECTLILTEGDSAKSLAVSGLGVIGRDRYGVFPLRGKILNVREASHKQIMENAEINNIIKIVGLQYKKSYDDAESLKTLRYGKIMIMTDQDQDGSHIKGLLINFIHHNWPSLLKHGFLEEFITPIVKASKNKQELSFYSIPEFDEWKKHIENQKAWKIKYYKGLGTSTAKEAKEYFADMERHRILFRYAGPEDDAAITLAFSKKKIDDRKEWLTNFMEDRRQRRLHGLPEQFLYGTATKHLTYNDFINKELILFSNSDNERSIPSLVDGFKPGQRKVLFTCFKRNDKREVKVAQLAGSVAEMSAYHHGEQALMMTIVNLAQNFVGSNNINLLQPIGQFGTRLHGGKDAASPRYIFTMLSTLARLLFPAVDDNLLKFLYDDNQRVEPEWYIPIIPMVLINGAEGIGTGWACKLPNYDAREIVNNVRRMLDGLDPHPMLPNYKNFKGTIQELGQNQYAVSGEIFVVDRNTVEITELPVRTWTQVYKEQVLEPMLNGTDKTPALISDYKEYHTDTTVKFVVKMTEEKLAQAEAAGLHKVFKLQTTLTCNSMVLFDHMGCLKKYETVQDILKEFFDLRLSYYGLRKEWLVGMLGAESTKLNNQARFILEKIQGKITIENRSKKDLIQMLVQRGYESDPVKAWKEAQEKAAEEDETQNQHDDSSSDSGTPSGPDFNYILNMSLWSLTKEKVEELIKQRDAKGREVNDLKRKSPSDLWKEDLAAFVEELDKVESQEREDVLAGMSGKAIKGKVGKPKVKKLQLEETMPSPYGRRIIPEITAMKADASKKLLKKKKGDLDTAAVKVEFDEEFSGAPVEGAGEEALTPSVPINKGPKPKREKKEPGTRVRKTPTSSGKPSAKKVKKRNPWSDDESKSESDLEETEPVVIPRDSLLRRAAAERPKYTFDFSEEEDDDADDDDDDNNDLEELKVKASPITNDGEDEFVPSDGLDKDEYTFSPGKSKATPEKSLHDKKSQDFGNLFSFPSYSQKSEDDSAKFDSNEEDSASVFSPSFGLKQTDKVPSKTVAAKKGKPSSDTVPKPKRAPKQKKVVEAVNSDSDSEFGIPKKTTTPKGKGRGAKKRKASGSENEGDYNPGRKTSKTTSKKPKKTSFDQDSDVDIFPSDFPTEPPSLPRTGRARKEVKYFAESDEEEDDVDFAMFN

For test [2], the target named is T2, Sterol O-acyltransferase 1 (Cricetulus griseus) (UniProt Q60457).
T2 sequence (whole entry): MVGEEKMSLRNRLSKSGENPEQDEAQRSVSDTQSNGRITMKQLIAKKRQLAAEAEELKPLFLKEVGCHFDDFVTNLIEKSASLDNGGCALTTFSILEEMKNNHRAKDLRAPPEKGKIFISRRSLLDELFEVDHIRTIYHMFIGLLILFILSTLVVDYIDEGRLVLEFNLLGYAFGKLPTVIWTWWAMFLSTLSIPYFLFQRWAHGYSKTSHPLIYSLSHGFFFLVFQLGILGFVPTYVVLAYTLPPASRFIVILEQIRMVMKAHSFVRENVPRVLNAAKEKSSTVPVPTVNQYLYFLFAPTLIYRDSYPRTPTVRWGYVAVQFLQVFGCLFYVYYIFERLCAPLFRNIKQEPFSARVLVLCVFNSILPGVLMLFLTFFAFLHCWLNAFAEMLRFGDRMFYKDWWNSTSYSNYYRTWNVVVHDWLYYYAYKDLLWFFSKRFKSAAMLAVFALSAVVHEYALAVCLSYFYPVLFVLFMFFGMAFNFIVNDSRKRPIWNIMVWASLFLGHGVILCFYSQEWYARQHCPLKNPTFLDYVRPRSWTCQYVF
Kind of test: Compound was tested for the change in serum cholesterol (SC) levels by the inhibition of ACAT in hamster at 10 mg/kg p.o.

Test [3] is described as follows: Compound was tested for topoisomerase mediated cleavage of DNA; Each + indicates a 2 to 4 fold increase.
For test [4], the target named is DNA topoisomerase II (Homo sapiens) (UniProt P11388+Q02880). Kind of test: Compound was tested for DNA Topoisomerase II mediated cleavage of DNA; Each (+) indicates 1 to 2 -fold increase.
Test [5] deals with T2, Sterol O-acyltransferase 1 (Cricetulus griseus). Kind of test: Compound was tested for the change in serum cholesterol (SC) levels by the inhibition of ACAT in hamster at 50 mg/kg p.o.
The target is the same in test [6]. The test is described as follows: Compound was tested for the change in liver cholesteryl ester (CE) levels by the inhibition of ACAT in hamster at 50 mg/kg p.o.; NE=No effect.
Test [7] addresses T3, Sterol O-acyltransferase 1 (Homo sapiens) (UniProt P35610).
T3 sequence (whole entry): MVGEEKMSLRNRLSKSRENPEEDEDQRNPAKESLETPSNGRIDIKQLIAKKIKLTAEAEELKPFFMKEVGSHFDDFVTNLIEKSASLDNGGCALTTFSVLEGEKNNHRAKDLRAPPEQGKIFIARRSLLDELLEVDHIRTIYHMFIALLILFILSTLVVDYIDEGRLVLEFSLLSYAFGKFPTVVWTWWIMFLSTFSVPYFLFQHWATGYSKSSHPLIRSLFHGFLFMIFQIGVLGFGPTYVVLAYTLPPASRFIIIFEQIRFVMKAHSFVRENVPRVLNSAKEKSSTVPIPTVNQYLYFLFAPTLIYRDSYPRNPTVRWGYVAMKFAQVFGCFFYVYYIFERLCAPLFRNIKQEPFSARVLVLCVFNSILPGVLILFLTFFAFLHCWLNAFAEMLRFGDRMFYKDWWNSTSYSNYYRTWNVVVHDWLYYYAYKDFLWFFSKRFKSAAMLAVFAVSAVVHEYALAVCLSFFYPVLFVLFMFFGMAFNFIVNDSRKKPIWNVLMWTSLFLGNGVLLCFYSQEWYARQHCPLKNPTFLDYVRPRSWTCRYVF
Kind of test: In vitro percent inhibition against Acyl coenzyme A:cholesterol acyltransferase (ACAT) at a dose of 25 uM.

In test [8] the target is T2, Sterol O-acyltransferase 1 (Cricetulus griseus). Kind of test: Compound was tested for the change in serum cholesterol (SC) levels by the inhibition of ACAT in hamster at 100 mg/kg p.o.; NE=No effect.
The target is the same in test [9]. Kind of test: Compound was tested for the change in liver cholesteryl ester (CE) levels by the inhibition of ACAT in hamster at 100 mg/kg p.o.; NE=No effect.
The target is the same in test [10]. The test is described as follows: Compound was tested for the change in serum cholesterol (SC) levels by the inhibition of ACAT in hamster at 50 mg/kg p.o.; NE=No effect.
Test [11] has the same target. The test is described as follows: Compound was tested for the change in liver cholesteryl ester (CE) levels by the inhibition of ACAT in hamster at 50 mg/kg p.o.
The target is the same in test [12]. The test is described as follows: Compound was tested for the change in serum cholesterol (SC) levels by the inhibition of ACAT in hamster at 100 mg/kg p.o.
Test [13] shares this target. Kind of test: Compound was tested for the change in liver cholesteryl ester (CE) levels by the inhibition of ACAT in hamster at 100 mg/kg p.o.
The target is the same in test [14]. Kind of test: Compound was tested for the change in serum cholesterol (SC) levels by the inhibition of ACAT in hamster at 5 mg/kg p.o.
Test [15] has the same target. Kind of test: Compound was tested for the change in liver cholesteryl ester (CE) levels by the inhibition of ACAT in hamster at 5 mg/kg p.o.
Test [16] has the same target. The test is described as follows: Compound tested for the change in liver cholesteryl ester (CE) levels by the inhibition of ACAT in hamster at 50 mg/kg p.o.; NE=No effect.
Another test relates to Mus musculus. Kind of test: Compound was evaluated for the analgesic activity by administering through subcutaneous route in hotplate test; G means not active until 25 mg/Kg Sc.
Test [17] concerns the target T2, Sterol O-acyltransferase 1 (Cricetulus griseus). The test is described as follows: Compound tested for the change in liver cholesteryl ester (CE) levels by the inhibition of ACAT in hamster at 100 mg/kg p.o.; NE=No effect.

“And” between values parts separate entries of the source, which are not always exact repeats. Equal values may be shown once. The source made the active and inactive calls. No cut-off for these calls is given here.

In general, ED50 refers to the midpoint of the dose-response relation. Broadly, the inhibition is the share of the control response that was lost under treatment. The low end stands for little suppression, the high end for strong suppression.

In turn, `COc1ccc([C@@H]2[C@@H](CCCc3ccccc3)C(=O)N2c2ccc(OC)cc2)cc1` yielded an ED50 in test [1] of 2 mg/kg. Further, the Change in cholesterol in [2] is -21% and -43%.
As for `COc1cc(NS(C)(=O)=O)ccc1Nc1c2ccccc2nc2ccccc12`, the Activity entry in test [3] was “+”; in test [4], “++”.
As to `Nc1ccc(CC(NC(=O)C(c2ccccc2)c2ccccc2)c2ccccc2)cc1` (configuration not stated), the results for the Change in cholesterol entry in [5] and in test [6] were “No effect” and -80%, respectively.
`CCCCCCCC/C=C\CCCCCCCC(=O)N1C[C@H](c2ccccc2)[C@H]1c1ccccc1` displayed an inhibition in [7] of 4%. The Change in cholesterol entry in test [8] and in [9] was “inactive” in each case.
For the compound `CCCCCCCCCC[C@H]1C(=O)N(c2ccc(OC)cc2)[C@@H]1c1ccccc1`, the Change in cholesterol result in [10] and in test [6] was “inactive” throughout.
With `CC[C@]1(c2ccccc2)C(=O)N(c2ccc(OC)cc2)[C@@H]1c1ccccc1`, the Change in cholesterol in test [5] is -15%; in [11], -39%.
In the same order, the values of `COc1ccc(N2C(=O)[C@@](CCCc3ccccc3)(c3ccccc3)[C@H]2c2ccccc2)cc1` are -11% and -16%.
With `CC[C@@]1(CCCc2ccccc2)C(=O)N(c2c(OC)cc(OC)cc2OC)[C@@H]1c1ccccc1`, the Change in cholesterol entry in [5] is “No effect”; in [6], -31%.
As for `CC[C@]1(CCCc2ccccc2)C(=O)N(c2ccc(OC)cc2)[C@@H]1c1ccccc1`, the results for the Change in cholesterol in [5] and in [11] were 12% and -29%, respectively.
With `COc1ccc(N2C(=O)[C@@](C(=O)Cc3ccccc3)(c3ccccc3)[C@H]2c2ccccc2)cc1`, the inhibition in test [7] turned out to be 4%. Besides, the Change in cholesterol in test [12] is -10%; in test [13] it was -26%.
`O=C(N[C@@H]1c2ccccc2C[C@@H]1c1ccc(O)cc1)C(c1ccccc1)c1ccccc1`: the Change in cholesterol in [14] is -7%; in test [15], -88%.
Turning to `COc1ccc(N2C(=O)[C@H](CCCc3ccccc3)[C@H]2c2ccccc2)cc1`, the Change in cholesterol entry in test [5] was “No effect”; in test [16], -15%.
`OC1CCN(C2(c3ccccc3)CCCCC2)CC1`: the ED50 result in the test with Mus musculus was “inactive”.
On to `COc1ccc(N2C(=O)[C@H](c3ccccc3)[C@H]2c2ccccc2)cc1`, for which the inhibition in [7] was 64%. Also, the Change in cholesterol entry in test [8] and in test [17] was “inactive” each time.
Take `CCCCCCCCCCC(C)(C)C(=O)Nc1c(OC)cc(OC)cc1OC`: the results for the Change in cholesterol in test [5] and in test [11] were -10% and -67%, respectively.

Source of the values: ChEMBL document CHEMBL1121863.
